Assay results taken from ChEMBL document CHEMBL1156930 (J Med Chem, 2010).
Where a SMILES comes first, the peptide text is derived from it. [ ]: non-standard residue; d: D form. The star is where a group is joined. NMeW = CN[C@@H](Cc1c[nH]c2ccccc12)C(=O)O; Palmitoyl = CCCCCCCCCCCCCCCC(=O)*

Organism: Homo sapiens
Assay: Selectivity ratio of Ki for human GalR2 to Ki for human GalR1

With CCCCCCCCCCCCCCCC(=O)NCCCC[C@H](NC(=O)[C@H](CCCCN)NC(=O)[C@H](CCCCN)NC(=O)[C@@H]1CCCN1C(=O)CNC(=O)[C@H](CC(C)C)NC(=O)[C@H](CC(C)C)NC(=O)[C@H](Cc1ccc(O)cc1)NC(=O)CNC(=O)[C@H](C)NC(=O)[C@H](CO)NC(=O)[C@H](CC(N)=O)NC(=O)[C@H](CC(C)C)NC(=O)[C@@H](NC(=O)[C@H](Cc1c[nH]c2ccccc12)NC)[C@@H](C)O)C(=O)N[C@@H](CCCCN)C(N)=O (H-[NMeW]TLNSAGYLLGPKKK(Palmitoyl)K-NH2) the Ratio Ki was 0.06.
